Source: PubChem BioAssay AID602410 (Johns Hopkins Ion Channel Center, 2012)
This is a selection; strong and weak results do not stand in their true shares. Activity calls are given as the source filed them.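 How the source made its calls: active means B-score under library mean minus 4 SD, starting fluorescence ratio at most library mean plus 5 SD; inactive means the rest.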

Amino acid sequences for entries named in this document (tags omitted).
UniProt O14649, whole entry: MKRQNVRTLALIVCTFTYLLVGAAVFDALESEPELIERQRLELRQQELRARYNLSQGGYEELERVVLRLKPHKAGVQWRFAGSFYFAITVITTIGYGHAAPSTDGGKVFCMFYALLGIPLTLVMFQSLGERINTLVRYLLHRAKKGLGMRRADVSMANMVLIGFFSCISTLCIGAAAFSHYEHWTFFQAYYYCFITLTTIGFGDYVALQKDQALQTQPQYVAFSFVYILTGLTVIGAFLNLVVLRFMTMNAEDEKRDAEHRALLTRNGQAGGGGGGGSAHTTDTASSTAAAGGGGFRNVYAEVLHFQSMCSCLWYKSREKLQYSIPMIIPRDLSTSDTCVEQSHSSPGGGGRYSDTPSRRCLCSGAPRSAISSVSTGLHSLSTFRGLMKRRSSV

These compounds were tested against Potassium channel subfamily K member 3 (Homo sapiens) (UniProt O14649) (assay: blockers of TASK1 two-pore potassium channel – CHO cells, FluxOR thallium flux, B-score, primary screen (AID 602410;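 on B-score: more negative B-score means stronger inhibition of thallium flux through KCNK3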)). Details: CHO-KCNK3 thallium flux, FluxOR fluorescence, at 10 µM; hits give low values.

Row | Compound | outcome | B-score
1 | Fc1ccccc1NC1CCN(Cc2ccccc2)CC1 | inactive | 
2 | Cc1ccc(C(=O)NCC2(N3CCCCC3)CCCCC2)o1 | inactive | 
3 | Cc1ccc(NC2(C#N)CCN(Cc3ccccc3)CC2)cc1 | inactive | 
4 | CC(=O)N(c1ccccc1)C1CCNCC1 | inactive | 
5 | COc1cc(OC)cc(C(=O)NCC2(N3CCCCC3)CCCCC2)c1 | inactive | 
6 | CN(C)c1ccc(C(=O)NCC2(N3CCCCC3)CCCCC2)cc1 | inactive | 
7 | Cn1c(=O)[nH]cc(N(CCCl)CCCl)c1=O | inactive | 
8 | O=C(NCC1(N2CCCCC2)CCCCC1)c1ccco1 | inactive | 
9 | CCN1CCC(Nc2cccc(F)c2)CC1 | inactive | 
10 | Cc1ccccc1NC1(C#N)CCN(Cc2ccccc2)CC1 | inactive | 
11 | O=C(O)C1(Nc2ccccc2)CCN(Cc2ccccc2)CC1 | inactive | 
12 | CC(C)(C)OC(=O)N1CCC(Nc2ccccc2)CC1 | inactive | 
13 | CCCOc1ccc(C(=O)NCC2(N(C)C)CCCCC2)cc1 | inactive | 
14 | CN1CCC(Nc2ccc(F)c(Cl)c2)CC1 | inactive | 
15 | CCOc1ncccc1C(=O)NCC1(N2CCOCC2)CCCCC1 | inactive | 
16 | CN1CCC(Nc2ccc(Cl)cc2)CC1 | inactive | 
17 | COc1cc(OC)cc(C(=O)NCC2(N3CCOCC3)CCCCC2)c1 | inactive | 
18 | COc1cccc(C(=O)N(c2cc(C)cc(C)c2)C2CCN(C(=O)OC(C)(C)C)CC2)c1 | inactive | 
19 | CCC(CO)(C(=O)OC1CN2CCC1CC2)c1ccccc1 (centres undefined) | inactive | 
20 | COc1ccc(C(=O)NCC2(N3CCOCC3)CCCCC2)cc1OC | inactive | 
21 | COc1cc(C(=O)NCC2(N3CCOCC3)CCCCC2)cc(OC)c1C | inactive | 
22 | O=C(NCC1(N2CCOCC2)CCCCC1)c1cc(Br)ccc1Cl | inactive | 
23 | O=C(OC1CN2CCC1CC2)C1c2ccccc2C=Cc2ccccc21 (centres undefined) | inactive | 
24 | CCOC(=O)N1CCC(Nc2ccc(C)cc2)CC1 | inactive | 
25 | N/C(=N\O)c1c(N)no[n+]1[O-] | inactive | 

Row | Compound | outcome | B-score
26 | N#Cc1ccc(C(=O)NCC2(N3CCCCC3)CCCCC2)cc1 | inactive | 
27 | CC(C)(C)OC(=O)N1CCC(N(C(=O)c2ccccc2)c2ccc(Cl)cc2)CC1 |  | active: -14
28 | CN(C)C1(CNC(=O)c2cccc(C#N)c2)CCCCC1 | inactive | 
29 | CCCN1CCC(Nc2cc(OC)cc(OC)c2)CC1 | inactive | 
30 | Cc1cc(N(CCCl)CCCl)ccc1C=O | inactive | 
31 | c1ccc(CN2CCC(Nc3ccccc3)CC2)cc1 | inactive | 
32 | N#CC1(Nc2ccccc2)CCN(CCc2ccccc2)CC1 | inactive | 
33 | CCN1CCC(Nc2ccc(Cl)cc2)CC1 | inactive | 
34 | O=C(NCC1(N2CCCCC2)CCCCC1)c1cccc([N+](=O)[O-])c1 | inactive | 
35 | CSc1ccc(C(=O)NCC2(N3CCOCC3)CCCCC2)cc1 | inactive | 
36 | O=C(NCC1(N2CCCCC2)CCCCC1)c1ccc(OC(F)F)cc1 | inactive | 
37 | COc1cc(C(=O)NCC2(N3CCCCC3)CCCCC2)ccc1OC(F)F | inactive | 
38 | O=C(NCC1(N2CCOCC2)CCCCC1)c1cc(=O)[nH]c2ccccc12 | inactive | 
39 | CN1CCN(CCOC(=O)C(O)(c2ccccc2)c2ccccc2)CC1 | inactive | 
40 | COc1ccc(NC2CCN(C(=O)OC(C)(C)C)CC2)cc1 | inactive | 
41 | CC(C)c1ccc(C(=O)NCC2(N3CCOCC3)CCCCC2)cc1 | inactive | 
42 | O=C(NCC1(N2CCCCC2)CCCCC1)c1cccc(C(F)(F)F)c1 | inactive | 
43 | O=C(NCC1(N2CCOCC2)CCCCC1)c1cc(F)c(F)cc1Cl | inactive | 
44 | COc1cc(OC)c(C(=O)NCC2(N(C)C)CCCCC2)cc1OC | inactive | 
45 | CC(C)c1ccc(NC2CCN(C(=O)OC(C)(C)C)CC2)cc1 | inactive | 
46 | CN(C)c1cccc(C(=O)NCC2(N3CCCCC3)CCCCC2)c1 | inactive | 
47 | COc1ccc(CN(CCCl)CCCl)cc1Cl | inactive | 
48 | CCCOc1ccc(C(=O)NCC2(N(C)C)CCCCC2)cc1OC | inactive | 
49 | CN1CCC(Nc2cccc(F)c2)CC1 | inactive | 
50 | O=C(NCC1(N2CCCCC2)CCCCC1)c1cncc(Br)c1 | inactive | 

Row | Compound | outcome | B-score
51 | Cc1cccc(NC2(C#N)CCN(Cc3ccccc3)CC2)c1 | inactive | 
52 | CSc1ccccc1C(=O)NCC1(N2CCCCC2)CCCCC1 | inactive | 
53 | COc1ccc(C(=O)NCC2(N3CCCCC3)CCCCC2)c(OC)c1OC | inactive | 
54 | CC(C)(C)OC(=O)N1CCC(N(C(=O)c2ccccc2)c2ccc(F)cc2)CC1 |  | active: -9.79
55 | COc1ccc(C(=O)NCC2(N3CCCCC3)CCCCC2)cc1 | inactive | 
56 | O=C(NCC1(N2CCCCC2)CCCCC1)c1cccs1 | inactive | 
57 | O=C(NCC1(N2CCCCC2)CCCCC1)c1ccc(=O)[nH]c1 | inactive | 
58 | COc1ccc(Cl)cc1C(=O)NCC1(N2CCOCC2)CCCCC1 | inactive | 
59 | O=C(NCC1(N2CCCCC2)CCCCC1)c1ccc(Cl)s1 | inactive | 
60 | N#CC1(Nc2ccccc2)CCN(Cc2ccccc2)CC1 | inactive | 
61 | O=C(OC1CN2CCC1CC2)C1c2ccccc2Oc2ccccc21 (centres undefined) | inactive | 
62 | CCOC(=O)N1CCC(Nc2ccc(OC)cc2)CC1 | inactive | 
63 | Cc1cc(C)cc(N(C(=O)c2ccccc2)C2CCN(C(=O)OC(C)(C)C)CC2)c1 |  | active: -9.75
64 | O=C(NCC1(N2CCCCC2)CCCCC1)c1ccc(Cl)nc1 | inactive | 
65 | O=C(NCC1(N2CCOCC2)CCCCC1)c1cc2ccccc2o1 | inactive | 
66 | COc1ccc(NC2CCN(CCc3ccccc3)CC2)c(OC)c1 | inactive | 
67 | CCOC(=O)N1CCC(Nc2ccc(F)cc2)CC1 | inactive | 
68 | O=P1(N(CCCl)CCCl)SCCCS1 | inactive | 
69 | CCCCOc1ccc(C(=O)NCC2(N3CCOCC3)CCCCC2)cc1 | inactive | 
70 | O=C(NCC1(N2CCCCC2)CCCCC1)c1ccc(F)cc1 | inactive | 
71 | O=C1CCN(Cc2ccccc2)CC1 | inactive | 
72 | CCOc1ccc(C)cc1CN(CCCl)CCCl | inactive | 
73 | CCOC(=O)N1CCC(Nc2cccc(C)c2)CC1 | inactive | 
74 | COc1cc(C(=O)NCC2(N(C)C)CCCCC2)ccc1OC(F)F | inactive | 
